Results from ChEMBL document CHEMBL3232965, “The σ2 receptor: a novel protein for the imaging and treatment of cancer” (J Med Chem, 2013).

Assay: Binding affinity to sigma-1 opioid receptor (unknown origin)

In the case of `COc1cc2c(cc1OC)CN(CCCCNC(=O)c1cc(C)ccc1OC)CC2`, the pKi was 5.51.

pKi: −log10 of the molar value.
